Values quoted from earlier work, collected in patent US20050042293A1, “Polymeric systems for drug delivery and uses thereof” (The University of British Columbia, priority 1997, published 2005).

Conditions: water from pH 4.5 to 7.0; cited from earlier work

Substance: Human insulin
- solubility in water (in words): practically insoluble in water
